Paper doi:10.1101/2023.11.15.567208 (bioRxiv, 2024)

Protein sequences, listed by entry. Tags and fused reporters are not part of them. Residues count along the entry.
UniProt Q9R1W5, 23-463: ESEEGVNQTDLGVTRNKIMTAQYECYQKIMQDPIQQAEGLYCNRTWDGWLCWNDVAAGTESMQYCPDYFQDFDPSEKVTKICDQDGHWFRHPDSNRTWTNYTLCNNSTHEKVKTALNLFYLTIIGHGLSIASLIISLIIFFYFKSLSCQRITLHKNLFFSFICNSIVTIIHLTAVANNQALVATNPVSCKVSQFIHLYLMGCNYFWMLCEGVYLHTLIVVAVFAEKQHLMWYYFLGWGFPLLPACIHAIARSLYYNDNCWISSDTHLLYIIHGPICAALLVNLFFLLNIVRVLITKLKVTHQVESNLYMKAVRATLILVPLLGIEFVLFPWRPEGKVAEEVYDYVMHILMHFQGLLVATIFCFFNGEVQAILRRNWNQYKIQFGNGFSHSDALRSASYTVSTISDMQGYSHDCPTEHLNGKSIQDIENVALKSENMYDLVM
UniProt Q9WTJ5, 27-148: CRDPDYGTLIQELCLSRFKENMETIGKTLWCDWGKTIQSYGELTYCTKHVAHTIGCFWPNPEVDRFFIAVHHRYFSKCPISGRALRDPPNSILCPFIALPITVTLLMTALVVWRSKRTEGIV

Key:
[1] = ref von Euler and Gaddum, 1931 (Substance P); Amara et al., 1982 (CGRPα); cited from earlier work
Excerpt: Among the most challenging diseases to treat is chronic pain. With over 20% of the population suffering from chronic pain, we urgently need to find new analgesic targets ([Nahin et al., 2023]).

[2] = target: T1, CGRP receptor (Calcrl and Ramp1) (Mus musculus, UniProt Q9R1W5+Q9WTJ5); experiment: Co-culture of DRG neurons with CGRP-sniffer cells, capsaicin-evoked CGRPα release; assay type: cell-based; conditions: exogenous CGRPα saturating concentration (100–1000 nM); co-culture with WT or DKO DRG
T1 construct: expressed in transfected cells; host or cells: HEK293; Calcrl/Gα15/GCaMP6s by PiggyBac transposase (puromycin), Ramp1 by pSBbi-Neo-cmv-TETo2-RAMP1 IRES-mTagBFP2-NLS (geneticin); doxycycline-induced
Excerpt: Figure 1. […] (A) Confocal images showing Substance P immunostaining in the dorsal root ganglion (DRG), spinal cord dorsal horn and midbrain of a WT mouse (top). No staining is detectable in the DKO (bottom). (B) Confocal images showing CGRP immunostaining in the DRG, spinal cord dorsal horn, and amygdala of a WT mouse (top). The DKO mice show no obvious staining (bottom). Images in both (A) and (B) are representative of staining performed on tissue from 1M and 1F animal per genotype. (C) Schematic showing co-culture of Tac1-RFP-labelled DRG neurons and Substance P-sniffer HEK293 cells expressing NKR1, GCaMP6s and Gαo. […] (D) Fluorescence images showing Tac1-RFP-labelled DRG neurons (magenta) and Substance P-sniffer cells (green). […] For (E), means were compared using repeated measures 2-way ANOVA, followed by post-hoc Sidak’s test. Error bars denote standard error of the mean. (F) Schematic showing co-culture of Tac1-RFP-labelled DRG neurons and Substance P-sniffer HEK293 cells expressing Calcrl, Ramp1, GCaMP6s and Gαo. […] (G) Fluorescence images showing Tac1-RFP-labelled DRG neurons (magenta) and Substance P-sniffer cells (green). […]
Imaging was performed in Ringer’s solution: 125 mM NaCl, 3 mM KCl, 5 mM CaCl2, 1 mM MgCl2, 10 mM glucose, and 10 mM HEPES (all from Sigma-Aldrich), adjusted to pH 7.3 with 1 M NaOH, and osmolality measured ~280 mmol/kg. […]

Q: For `CC(C)C[C@H](NC(=O)CNC(=O)[C@H](C)NC(=O)[C@H](CC(C)C)NC(=O)[C@H](CCCNC(=N)N)NC(=O)[C@H](Cc1c[nH]cn1)NC(=O)[C@@H](NC(=O)[C@@H](NC(=O)[C@@H]1CSSC[C@H](NC(=O)[C@@H](N)CO)C(=O)N[C@@H](CC(N)=O)C(=O)N[C@@H]([C@@H](C)O)C(=O)N[C@@H](C)C(=O)N[C@@H]([C@@H](C)O)C(=O)N1)C(C)C)[C@@H](C)O)C(=O)N[C@@H](CC(C)C)C(=O)N[C@@H](CO)C(=O)N[C@@H](CCCNC(=N)N)C(=O)N[C@@H](CO)C(=O)NCC(=O)NCC(=O)N[C@H](C(=O)N[C@H](C(=O)N[C@@H](CCCCN)C(=O)N[C@@H](CC(=O)O)C(=O)N[C@@H](CC(N)=O)C(=O)N[C@@H](Cc1ccccc1)C(=O)N[C@H](C(=O)N1CCC[C@H]1C(=O)N[C@H](C(=O)N[C@@H](CC(N)=O)C(=O)N[C@H](C(=O)NCC(=O)N[C@@H](CO)C(=O)N[C@@H](CCC(=O)O)C(=O)N[C@@H](C)C(=O)N[C@@H](Cc1ccccc1)C(N)=O)C(C)C)[C@@H](C)O)C(C)C)C(C)C)C(C)C` [CGRPα], which “Contractile or vasodilator activity” value [1] is on record?
A: potent vasodilator

Q: And the “CGRP-sniffer activation by exogenous peptide” value [2]?
A: activates CGRP-sniffers in both conditions
